{"sequences": {"note": "The chains behind the UniProt entries cited, without tags or fusion partners. Where a name states a change or a piece, a line headed by the entry shows the natural chain unless it says otherwise. Residues count along the entry.", "UniProt P14416, 1-414 isoform P14416-2": "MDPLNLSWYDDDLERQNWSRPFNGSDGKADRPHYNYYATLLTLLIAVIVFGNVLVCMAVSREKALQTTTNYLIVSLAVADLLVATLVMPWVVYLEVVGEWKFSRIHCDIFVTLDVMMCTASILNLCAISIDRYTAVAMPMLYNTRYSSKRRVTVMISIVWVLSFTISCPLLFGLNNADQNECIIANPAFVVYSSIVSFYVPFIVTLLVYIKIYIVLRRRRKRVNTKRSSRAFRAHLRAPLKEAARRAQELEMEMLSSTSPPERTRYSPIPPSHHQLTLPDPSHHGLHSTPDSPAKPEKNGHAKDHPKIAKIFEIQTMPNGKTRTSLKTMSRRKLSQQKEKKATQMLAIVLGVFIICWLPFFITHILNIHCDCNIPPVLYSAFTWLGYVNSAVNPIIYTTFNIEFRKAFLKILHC"}, "source": "paper PMC8027564", "about": "“A novel luminescence-based β-arrestin recruitment assay for unmodified receptors” (The Journal of Biological Chemistry, 2021)", "target": "T1, D2R (Homo sapiens, UniProt P14416)", "T1 construct": "expressed in transfected cells; host or cells: Hek293 (D2R cotransfected with GRK2, MeN and ArC)", "assay_type": "cell-based"}
{"smiles": "CCCN1CCCC(c2cccc(O)c2)C1", "note": "(stereo not shown) [PPP, (3-hydroxyphenyl)-N-propylpiperidine]", "values": [{"measurement": "pEC50 ± SD", "result": "−5.61 ± 1.01"}]}
